Experimental findings from PubChem BioAssay AID2006 (Sanford-Burnham Center for Chemical Genomics, 2009) are described below.

Sequences of proteins named here, by UniProt entry; tags and fusion partners are left off.
UniProt P63279, whole entry: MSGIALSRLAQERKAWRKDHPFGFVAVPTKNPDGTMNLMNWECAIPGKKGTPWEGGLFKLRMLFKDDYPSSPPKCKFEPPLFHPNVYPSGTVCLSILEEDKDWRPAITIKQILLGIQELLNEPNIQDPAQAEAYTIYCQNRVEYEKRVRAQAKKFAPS

For orientation: inhibition means the relative decrease from the control value, in per cent.

The list shows a part of the results, in another mix than the full data. Some salts or complexes appear as unconnected parts, following the source record. Active and inactive are the calls of the source. No stated cut-off is given here; in the data, active means inhibition above about 50% (passing the limit was not always enough); inconclusive means no clear call, values can overlap the other calls.

This assay concerns the target SUMO-conjugating enzyme UBC9 (Homo sapiens) (UniProt P63279). Description: blockers of SAE1/SAE2–UBC9 SUMO transfer – biochemical, HTRF, uHTS, primary screen (AID 2006). The conditions noted are these: HTRF SUMOylation assay, SAE1/SAE2 + UBC9, in vitro; at 35 µM; active compounds read high. On the technique in general: TR-FRET usually uses a lanthanide donor and a delayed reading to cut background.
`CCN(CC)CCCOC(=O)C(O)(c1ccccc1)C1CCCCC1` (stereo not given): the inhibition is inactive: 7.3%.
Consider `O=[N+]([O-])c1cc([N+](=O)[O-])c(OC2CCCCC2O)c([N+](=O)[O-])c1` (stereo not given), for which the inhibition is inactive: 11.7%.
Take `CCCCCOc1ccc(NP(C)(=O)Oc2ccc(Cl)cc2Cl)cc1` (stereo not given): the inhibition was inactive: 13.1%.
Consider `CP(=O)(Nc1ccccc1)Oc1ccc(F)cc1` (stereo not given), for which the inhibition was inactive: -6.8%.
For `COc1ccc(OP(C)(=O)Nc2ccc(SC(F)(F)F)cc2)cc1` (stereo not given), the inhibition is inactive: -11%.
Take `CCOC(=O)c1ccc(NP(C)(=O)Oc2ccc(F)cc2)cc1` (stereo not given): the inhibition was inactive: 0.3%.
On to `O=C(OCCN1CCN(CCOCc2ccccc2)CC1)C(O)(c1ccccc1)c1ccccc1`, for which the inhibition is inactive: -14.1%.
The figure for `O=C(OC1CN2CCC1CC2)c1ccc([N+](=O)[O-])cc1` (stereo not given) is inactive: 11.1%; for `COc1ccc2c(c1O)-c1c(O)c(OC)cc3c1[C@H](C2)[N+](C)(C)CC3.O=[N+]([O-])c1cc([N+](=O)[O-])c([O-])c([N+](=O)[O-])c1[O-]` it is inactive: 12.5%; for `CC(C)c1ccc(OP(C)(=O)Nc2ccc(SC(F)(F)F)cc2)cc1` (stereo not given) it is inactive: -40.5%.
As to `CP(=O)(Nc1ccccc1F)Oc1ccccc1` (stereo not given), the inhibition is inactive: 13.9%.
Turning to `CP(=O)(Nc1ccc2c(c1)OCCO2)Oc1ccccc1` (stereo not given), the inhibition is inactive: -31.9%.
In the case of `Cc1ccccc1NP(C)(=O)Nc1ccccc1C`, the inhibition is inactive: 7.1%.
Turning to `CP(=O)(Nc1ccc(SC(F)(F)F)cc1)Oc1ccc(F)cc1` (stereo not given), the inhibition was inactive: 12.7%.
Regarding `CCOP(C)(=S)SCC(=O)NC(C)(CC)C(=O)O` (stereo not given), the inhibition is inactive: 7.8%.
Regarding `Cc1cc(-c2cccc3ccccc23)c(C)cn1.O=[N+]([O-])c1cc([N+](=O)[O-])c(O)c([N+](=O)[O-])c1`, the inhibition was inactive: 19.4%.
Consider `O=[N+]([O-])c1cc([N+](=O)[O-])c(NCC2CCS(=O)(=O)C2)c([N+](=O)[O-])c1` (stereo not given), for which the inhibition was inactive: 0%.
`O=[N+]([O-])c1ccc(OP2(=O)COCCO2)cc1` (stereo not given): the inhibition is inactive: 6.4%.
In the case of `COc1ccc(OP(C)(=O)Nc2cccc(Br)c2)cc1` (stereo not given), the inhibition is inactive: -4.3%.
With `COc1ccc(NP(C)(=O)Oc2ccccc2OC)cc1` (stereo not given), the inhibition is inactive: 0.4%.
With `CN(C)CCOC(=O)C(O)(c1ccccc1)C1CCCCC1` (stereo not given), the inhibition was inactive: 16.4%.
For `CP(=O)(OC12CC3CC(CC(C3)C1)C2)OC12CC3CC(CC(C3)C1)C2`, the inhibition is inactive: 2.8%.
Turning to `CCOC(=O)c1ccc(NP(C)(=O)Oc2ccc(Cl)cc2)cc1` (stereo not given), the inhibition was inactive: -6.2%.
Under `CP(=O)(Nc1ccc(Cl)cc1)Oc1ccc(F)cc1` (stereo not given) stands inactive: 9.5%.
Turning to `CC(C)(C)c1ccc(OP(C)(=O)O)cc1`, the inhibition was inactive: 13.4%.
`COc1ccccc1OP(C)(=O)Nc1ccccc1Br` (stereo not given): the inhibition is inactive: 1.6%.
Regarding `CN(C)C(=O)c1c([N+](=O)[O-])cc([N+](=O)[O-])cc1[N+](=O)[O-]`, the inhibition is inactive: 19.1%.
Under `CCN(CC)CC(O)COC(=O)C(O)(c1ccccc1)C1CCCCC1` (stereo not given) stands inactive: 6%.
For `COc1ccc(OP(C)(=O)Nc2ccc(Br)cc2)cc1` (stereo not given), the inhibition is inactive: -0.9%.
With `CP(=O)(Oc1ccccc1)N1CCOC1=O` (stereo not given), the inhibition was inactive: 1.8%.
As to `CCc1ccc(OP(C)(=O)Nc2cccnc2)cc1` (stereo not given), the inhibition was inactive: 4.2%.
Under `COc1ccccc1OP(C)(=O)Nc1c(C)n(C)n(-c2ccccc2)c1=O` (stereo not given) stands inactive: -0.4%.
The figure for `O=C(OCCCN1CCCC1)C(O)(c1ccccc1)C1CCCCC1` (stereo not given) is inactive: 8.6%; for `O=[N+]([O-])c1cc([N+](=O)[O-])c(Nc2ccccn2)c([N+](=O)[O-])c1` it is inactive: 2.1%; for `Cc1c(NP(C)(=O)Oc2ccc(C(C)C)cc2)c(=O)n(-c2ccccc2)n1C` (stereo not given) it is inactive: 1.5%.
For the compound `CCc1ccc(OP(C)(=O)O)cc1`, the inhibition is inactive: 21.9%.
For `CP(=O)(Nc1ccccn1)Oc1ccccc1` (stereo not given), the inhibition was inactive: -3.4%.
Turning to `COc1ccccc1OP(C)(=O)Nc1ccc(C)cc1C` (stereo not given), the inhibition is inactive: 20%.
`COc1ccccc1OP(C)(=O)Nc1ccc(Br)cc1` (stereo not given): the inhibition is inactive: 24.8%.
Under `CN(C)CCOC(=O)C(O)(c1ccccc1)C1CCCC1` (stereo not given) stands inactive: 4.4%; under `COc1ccc(OP(C)(=O)Nc2ccccn2)cc1` (stereo not given), inactive: 16%; under `Cc1nc2ccc3ccccc3c2o1.O=[N+]([O-])c1cc([N+](=O)[O-])c(O)c([N+](=O)[O-])c1`, inactive: -17%.
The figure for `CP(=O)(OCCOc1ccccc1)OCCOc1ccccc1` is inactive: 2.7%; for `CP(=O)(Nc1ccc(Cl)cc1Cl)Oc1ccccc1` (stereo not given) it is inactive: 5%; for `Cc1cc(C)cc(OP(C)(=O)Nc2cccc(C(F)(F)F)c2)c1` (stereo not given) it is inactive: -7.8%.
The figure for `COc1ccc(OP(C)(=O)Nc2ccccc2Br)cc1` (stereo not given) is inactive: 7.4%; for `COc1ccccc1OP(C)(=O)Nc1ccc(C)c(C)c1` (stereo not given) it is inactive: 14%.
Regarding `CCOC(=O)c1ccc(NP(C)(=O)Oc2ccccc2)cc1` (stereo not given), the inhibition was inactive: 0.2%.
`COc1ccccc1OP(C)(=O)Nc1ccc(C)cc1` (stereo not given): the inhibition was inactive: 20.7%.
Under `Cc1ccc(NP(C)(=O)Oc2ccccc2)c(C)c1` (stereo not given) stands inactive: 16.8%.
For `COc1ccccc1OP(C)(=O)Nc1cc(Cl)ccc1C` (stereo not given), the inhibition was inactive: -3.8%.
The figure for `COc1ccc(OP(C)(=O)Nc2cccc(F)c2)cc1` (stereo not given) is inactive: -3%; for `Cc1cc(C)cc(OP(C)(N)=O)c1` (stereo not given) it is inactive: 21.3%; for `CC(C)(C)c1ccc(OP(C)(=O)Nc2ccc(SC(F)(F)F)cc2)cc1` (stereo not given) it is inactive: -47.1%.
For the compound `Cc1cccc(C)c1OP(C)(N)=O` (stereo not given), the inhibition is inactive: 2.1%.
Take `O=[N+]([O-])c1ccc2c(c1)C=Nc1ccccc1O2`: the inhibition is inactive: 4%.
The figure for `CCN(CC)CCCOC(=O)C(O)(c1ccccc1)c1ccccc1` is inactive: 3.9%; for `CCOP(C)(=S)SCC(=O)NC(C)C(=O)O` (stereo not given) it is inactive: 21.4%.
The figure for `CCOC(=O)c1ccc(NP(C)(=O)Oc2ccc(OC)cc2)cc1` (stereo not given) is inactive: 1.7%; for `CP(=O)(Nc1ccccn1)Oc1ccc(Cl)cc1` (stereo not given) it is inactive: -6.1%.
For `CP(=O)(Nc1ccc(SC(F)(F)F)cc1)Oc1ccc(Cl)cc1` (stereo not given), the inhibition was inactive: -17.1%.
As to `Cc1cccc(C)c1OP(C)(=O)Nc1ccc(SC(F)(F)F)cc1` (stereo not given), the inhibition was inactive: -4.8%.
With `CP(=O)(Oc1ccccc1)OC(c1ccccc1)C(F)(F)F` (stereo not given), the inhibition is inactive: -5.5%.
The figure for `CCc1ccc(OP(C)(=O)N2CCN(c3ccc([N+](=O)[O-])cc3)CC2)cc1` (stereo not given) is inactive: 21.4%; for `CP(=O)(NC(=O)Nc1ccccc1)Oc1ccccc1` (stereo not given) it is inactive: 11.8%.
Under `Cc1cc(C)cc(OP(C)(=O)Nc2ccc(SC(F)(F)F)cc2)c1` (stereo not given) stands inactive: -20.7%.
Under `CP(=S)(Nn1cnnc1)Oc1ccccc1` (stereo not given) stands inactive: 1.7%.
Turning to `COc1ccccc1OP(C)(=O)Nc1ccccc1` (stereo not given), the inhibition was inactive: -14.9%.
Regarding `CP(=O)(Nc1ccccc1Br)Oc1ccccc1` (stereo not given), the inhibition is inactive: 9.6%.
Under `CN1CCCCC1COC(=O)C1(O)c2ccccc2CCc2ccccc21` (stereo not given) stands inactive: 10.5%; under `COc1ccccc1OP(C)(=O)Nc1c(C)cccc1C` (stereo not given), inactive: 11%.
`CP(=O)(Nc1ccc(SC(F)(F)F)cc1)Oc1ccccc1` (stereo not given): the inhibition was inactive: -10%.
Under `CCCOc1ccc(NP(C)(=O)Oc2ccc(Cl)cc2)cc1` (stereo not given) stands inactive: -8.5%; under `O=[N+]([O-])c1cc([N+](=O)[O-])c(Nc2nnnn2CCO)c([N+](=O)[O-])c1`, inactive: 11.9%; under `CCOC(=O)C(CC)C1=NC(C)(C)Cc2ccccc21.O=[N+]([O-])c1cc([N+](=O)[O-])c(O)c([N+](=O)[O-])c1` (stereo not given), inactive: 8.3%.
For the compound `Cc1nc2ccc3ccccc3c2s1.O=[N+]([O-])c1cc([N+](=O)[O-])c(O)c([N+](=O)[O-])c1`, the inhibition was inactive: 16.2%.
Regarding `O=[N+]([O-])c1cc([N+](=O)[O-])c(-n2nnc3ccccc32)c([N+](=O)[O-])c1`, the inhibition is inactive: 5.6%.
Turning to `CP(=O)(Nc1cccc(Br)c1)Oc1ccccc1` (stereo not given), the inhibition was inactive: 10.7%.
`Cc1cc(C)cc(OP(C)(=O)Nc2ccccn2)c1` (stereo not given): the inhibition was inactive: -0.2%.
Under `Cc1ccc(C)c(NP(C)(=O)Oc2ccccc2)c1` (stereo not given) stands inactive: -12.5%.
Turning to `COc1ccccc1OP(C)(=O)Nc1cccc(Br)c1` (stereo not given), the inhibition is inactive: 9.1%.
As to `Cc1cc(C)cc(OP(C)(=O)Nc2ccc(C)cc2C)c1` (stereo not given), the inhibition was inactive: 7.7%.
The figure for `CCOC(=O)c1ccc(NP(C)(=O)Oc2cc(C)cc(C)c2)cc1` (stereo not given) is inactive: -5.1%.
Take `CC1=NCCc2c1[nH]c1ccccc21.O=[N+]([O-])c1cc([N+](=O)[O-])c(O)c([N+](=O)[O-])c1`: the inhibition was inactive: 14.9%.
Under `O=C(O)c1cccc(Nc2c([N+](=O)[O-])cc([N+](=O)[O-])cc2[N+](=O)[O-])c1` stands inactive: 11.2%.
